# Several values for one entry are separate records, joined by “and”; a condition that tells them apart may be missing. Identical values can stand only once. The list shows a part of the results, in another mix than the full data.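 Compound tested at a single concentration for 48 hours in 96-well plates; a percent growth value below 10 was scored as active.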 Activity calls are given as the source filed them.
# Columns and labels:
# Assay in all cases: NCI-60 one-dose screen, 48 h (100 = growth as untreated, 0 = no growth, -100 = all killed)
# Conditions in all cases: 10 µM unless noted
# [1] = tested on: MOLT-4 leukemia
# [2] = tested on: SR leukemia
# [3] = tested on: RPMI-8226 leukemia
# [4] = tested on: OVCAR-8 ovarian
# [5] = tested on: OVCAR-5 ovarian
# [6] = tested on: OVCAR-4 ovarian
# [7] = tested on: SK-OV-3 ovarian
# [8] = tested on: IGROV1 ovarian
# [9] = tested on: OVCAR-3 ovarian
# [10] = tested on: HS 578T breast
Compound,growth [1],growth [2],growth [3],growth [4],growth [5],growth [6],growth [7],growth [8],growth [9],growth [10]
CSc1ccc(Nc2c([N+](=O)[O-])cc([N+](=O)[O-])cc2[N+](=O)[O-])cc1,inactive: 54.8%,inactive: 16.9%,active: -7.99%,inactive: 40.9%,inactive: 66.8%,inactive: 31%,inactive: 83.4%,inactive: 28.9%,active: -13.8%,inactive: 74.7%
COC(=O)C1=C(C)O[P@](=O)(OC)CCC1c1ccccc1 (stereo not given in full),inactive: 90.4%,inactive: 102%,,inactive: 91.9%,inactive: 87.8%,inactive: 105%,inactive: 103%,inactive: 99.1%,inactive: 129%,inactive: 96.9%
CN(CCCl)CC1OC(O)C(O)C(O)C1O (stereo not given),inactive: 101%,inactive: 92.3%,inactive: 104%,inactive: 94.6%,inactive: 99.9%,inactive: 98.4%,inactive: 104%,,inactive: 110%,inactive: 104%
COc1cc([N+](=O)[O-])c([N+](=O)[O-])cc1OC,inactive: 78.7% and inactive: 97.7%,inactive: 78% and inactive: 101%,inactive: 100%,inactive: 97.9% and inactive: 106%,inactive: 107%,inactive: 91.6% and inactive: 113%,inactive: 97.4% and inactive: 108%,inactive: 117% and inactive: 103%,inactive: 114% and inactive: 106%,inactive: 109% and inactive: 115%
CCOP(=O)(CCCBr)OCC,inactive: 101%,inactive: 108%,inactive: 102%,inactive: 101%,inactive: 105%,inactive: 102%,inactive: 104%,inactive: 113%,inactive: 113%,inactive: 101%
CC1CCNP(=O)(N(CCCl)CCCl)O1 (stereo not given),inactive: 90.5%,inactive: 95.2%,inactive: 93%,inactive: 102%,inactive: 106%,inactive: 112%,inactive: 104%,inactive: 103%,inactive: 97.3%,inactive: 97%
O=C(CBr)c1ccc([N+](=O)[O-])cc1,inactive: 91.5%,inactive: 96.9%,inactive: 89.9%,inactive: 127%,inactive: 129%,,inactive: 98.8%,inactive: 108%,inactive: 111%,inactive: 119%
Nc1cccc([As](=O)(O)c2ccccc2)c1,inactive: 103%,inactive: 111%,inactive: 93.3%,inactive: 105%,inactive: 97.3%,inactive: 100%,inactive: 103%,,inactive: 109%,inactive: 114%
CCCCCCCNP(=S)(Cl)Cl,inactive: 104%,inactive: 104%,inactive: 104%,inactive: 106%,inactive: 103%,inactive: 96.1%,inactive: 94%,,inactive: 107%,inactive: 114%
ClCCN1c2ccccc2Sc2ccccc21,inactive: 99.2%,inactive: 98.8%,inactive: 98.5%,inactive: 100%,inactive: 121%,inactive: 98%,inactive: 109%,inactive: 108%,,inactive: 100%
CN(C)P(=O)(N(C)C)n1c(Nc2ccccc2)nnc1-c1ccccc1,inactive: 93.9%,inactive: 97.7%,inactive: 96.4%,,inactive: 98.4%,inactive: 91.9%,inactive: 105%,inactive: 109%,inactive: 104%,inactive: 99.7%
Cc1cc(C)cc(OP(=O)(Cl)Oc2cc(C)cc(C)c2)c1,inactive: 99.9%,inactive: 99.4%,inactive: 120%,inactive: 120%,inactive: 106%,,inactive: 113%,inactive: 99.4%,inactive: 109%,inactive: 97.1%
NC(=O)c1[nH]cnc1/N=N\N(CCCl)CCCl,inactive: 105%,inactive: 122%,inactive: 111%,inactive: 109%,inactive: 91.4%,inactive: 99.7%,inactive: 102%,,inactive: 123%,inactive: 120%
O=[N+]([O-])c1ccc(Oc2cccc(Oc3ccc([N+](=O)[O-])cc3[N+](=O)[O-])c2)c([N+](=O)[O-])c1,inactive: 52.4%,active: -21.4%,inactive: 74%,inactive: 81.8%,inactive: 114%,inactive: 65.7%,inactive: 95.5%,inactive: 90.9%,inactive: 86.1%,inactive: 85.4%
CC(C)c1nc(Nc2ccccc2)n(P(=O)(N(C)C)N(C)C)n1,inactive: 101%,inactive: 99.2%,inactive: 103%,,inactive: 101%,inactive: 91.2%,inactive: 96.9%,inactive: 109%,inactive: 111%,inactive: 97.3%
